# Literature values in patent publication US20140100282A1, “INTRANASAL ADMINISTRATION OF PHARMACEUTICAL AGENTS FOR TREATMENT OF NEUROLOGICAL DISEASES” (priority 2012, published 2014).
# Settings: systemic treatment
compound,measurement,value
[H]/N=C(/N)N/C(=N/[H])NCCc1ccccc1 [phenformin],toxicity limiting systemic use,lactic acidosis
